Reference: US5856189A, “Cell culture model for drug bioavailability” (priority 1997, dated 1999)

Protein sequences, listed by entry. Tags and fused reporters are not part of them. Residues count along the entry.
UniProt P08684, 2-503: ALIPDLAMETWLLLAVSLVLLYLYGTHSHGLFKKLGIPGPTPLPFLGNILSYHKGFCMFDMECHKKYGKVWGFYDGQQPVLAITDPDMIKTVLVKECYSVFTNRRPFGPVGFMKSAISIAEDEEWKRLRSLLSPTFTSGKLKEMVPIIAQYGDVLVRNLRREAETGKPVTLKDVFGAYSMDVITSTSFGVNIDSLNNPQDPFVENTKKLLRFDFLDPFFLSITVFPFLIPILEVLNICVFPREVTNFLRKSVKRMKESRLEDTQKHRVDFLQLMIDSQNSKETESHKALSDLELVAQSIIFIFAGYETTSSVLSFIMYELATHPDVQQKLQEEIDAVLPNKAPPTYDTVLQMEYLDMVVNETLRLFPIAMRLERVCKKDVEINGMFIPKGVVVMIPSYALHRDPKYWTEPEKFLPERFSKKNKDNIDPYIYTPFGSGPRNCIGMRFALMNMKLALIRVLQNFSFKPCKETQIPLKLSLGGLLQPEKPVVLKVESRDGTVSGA

How the values were obtained:
CYP3A7 = conditions: J. C. Gorski et al.; cited from earlier work
CYP3A (Caco-2 cells) [1] = conditions: Matrigel
CYP3A (Caco-2 cells) [2] = molecular target: CYP3A (Caco-2 cells) (Homo sapiens, UniProt P08684)
[3] = system: human jejunal microsomes (CYP3A); assay: Intrinsic 1'-OH-MDZ formation clearance, human jejunal mucosa/microsomes; format: in vitro ADME; conditions: n = 8
Description: (§1) For comparison, an intrinsic 1'-OH-MDZ formation clearance was determined for eight paired human duodenal and jejunal mucosae. The mucosal mass was removed from ~1 foot sections of duodenum and jejunum and total homogenate and microsomes were prepared, as described above. Two of eight preparations contained relatively low amounts of CYP3A5 in addition to CYP3A4, which were resolved from one another by SDS-PAGE. Microsomes were incubated with varying concentrations of MDZ for determination of Km and Vmax parameters for 1'-hydroxylation. Protein concentrations for homogenate and microsomes were measured by the Lowry et al. method [J. Biol. Chem. 193:265-275 (1951)]. The specific CYP3A4 content (pmol/mg protein) in homogenate and microsomes was measured by immunoblot analysis [E. D. Kharasch and K. E. Thummel, Anesth. Analg. 76:1033-1039 (1993)].
(§2) The total amount of microsomal protein per gram of mucosa was determined from the following relationship: [formula] This calculation assumes that CYP3A4 found in mucosal homogenate resides exclusively within the microsomal fraction. The microsomal intrinsic formation clearance was calculated as the ratio of Vmax to Km. The intrinsic 1'-OH-MDZ formation clearance per gram of mucosa was calculated as the product of the microsomal intrinsic formation clearance and the computed amount of microsomal protein per gram of mucosa.

[4] = system: human jejunal microsomes (CYP3A4, CYP3A5)
[5] = system: human duodenal microsomes (CYP3A); assay: Intrinsic 1'-OH-MDZ formation clearance, human duodenal mucosa/microsomes; format: in vitro ADME; conditions: n = 8
Description: as §1, §2

[6] = clone 5, untreated, 7.5 h incubation
[7] = clone 5, 336 h 1α,25-(OH)2-D3, Matrigel, 7.5 h incubation
[8] = clone 7, 336 h 1α,25-(OH)2-D3, Matrigel, 7 h incubation
[9] = clone 7, 336 h 1α,25-(OH)2-D3, laminin, 7 h incubation

Cc1ncc2n1-c1ccc(Cl)cc1C(c1ccccc1F)=NC2 [midazolam]
1'-OH-MDZ/4-OH-MDZ product ratio with CYP3A7 (CYP3A7): less than unity | 1'-OH-MDZ/4-OH-MDZ ratio, apical (CYP3A (Caco-2 cells) [1]; [6]): 4.5 | 1'-OH-MDZ/4-OH-MDZ ratio, basolateral (CYP3A (Caco-2 cells) [1]; [6]): 3.6 | 1'-OH-MDZ/4-OH-MDZ ratio, apical (CYP3A (Caco-2 cells) [1]; clone 7, 12 h 1α,25-(OH)2-D3, 6 h incubation): 3.8 | 1'-OH-MDZ/4-OH-MDZ ratio, apical (CYP3A (Caco-2 cells) [2]; [7]): 5.4 | 1'-OH-MDZ/4-OH-MDZ ratio, basolateral (CYP3A (Caco-2 cells) [2]; [7]): 5.2 | product formation ratio (CYP3A (Caco-2 cells) [2]; clone 7, 1α,25-(OH)2 -D3 treated, laminin or Matrigel): greater than 5 | 1'-OH-MDZ/4-OH-MDZ ratio, apical (CYP3A (Caco-2 cells) [2]; clone 7, 120 h 1α,25-(OH)2-D3, Matrigel, 6 h incubation): 5.1 | 1'-OH-MDZ/4-OH-MDZ ratio, apical (CYP3A (Caco-2 cells) [2]; clone 7, 336 h 1α,25-(OH)2-D3, Matrigel, 6 h incubation): 5.3 | 1'-OH-MDZ/4-OH-MDZ ratio, apical (CYP3A (Caco-2 cells) [2]; [8]): 5.3 | 1'-OH-MDZ/4-OH-MDZ ratio, basolateral (CYP3A (Caco-2 cells) [2]; [8]): 5.2 | 1'-OH-MDZ/4-OH-MDZ ratio, apical (CYP3A (Caco-2 cells) [2]; [9]): 5.4 | 1'-OH-MDZ/4-OH-MDZ ratio, basolateral (CYP3A (Caco-2 cells) [2]; [9]): 5.2 | interindividual variation of intrinsic clearance, jejunum [3]: 20 fold | 1'-OH-MDZ/4-OH-MDZ ratio ([4]; HI-19 (CYP3A4), 0.25 μM MDZ): 7.4 | 1'-OH-MDZ/4-OH-MDZ ratio ([4]; HI-19 (CYP3A4), 1.00 μM MDZ): 8.1 | 1'-OH-MDZ/4-OH-MDZ ratio ([4]; HI-19 (CYP3A4), 4.00 μM MDZ): 6.8 | 1'-OH-MDZ/4-OH-MDZ ratio ([4]; HI-19 (CYP3A4), 8.00 μM MDZ): 5.6 | 1'-OH-MDZ/4-OH-MDZ ratio ([4]; HI-20 (CYP3A4), 0.25 μM MDZ): 9.0 | 1'-OH-MDZ/4-OH-MDZ ratio ([4]; HI-20 (CYP3A4), 1.00 μM MDZ): 8.9 | 1'-OH-MDZ/4-OH-MDZ ratio ([4]; HI-20 (CYP3A4), 4.00 μM MDZ): 7.1 | 1'-OH-MDZ/4-OH-MDZ ratio ([4]; HI-20 (CYP3A4), 8.00 μM MDZ): 5.8 | 1'-OH-MDZ/4-OH-MDZ ratio ([4]; HI-28 (CYP3A4), 0.25 μM MDZ): 8.5 | 1'-OH-MDZ/4-OH-MDZ ratio ([4]; HI-28 (CYP3A4), 1.00 μM MDZ): 8.6 | 1'-OH-MDZ/4-OH-MDZ ratio ([4]; HI-28 (CYP3A4), 4.00 μM MDZ): 7.0 | 1'-OH-MDZ/4-OH-MDZ ratio ([4]; HI-28 (CYP3A4), 8.00 μM MDZ): 5.7 | 1'-OH-MDZ/4-OH-MDZ ratio ([4]; HI-30 (CYP3A4 & 3A5), 0.25 μM MDZ): 15.4 | 1'-OH-MDZ/4-OH-MDZ ratio ([4]; HI-30 (CYP3A4 & 3A5), 1.00 μM MDZ): 12.1 | 1'-OH-MDZ/4-OH-MDZ ratio ([4]; HI-30 (CYP3A4 & 3A5), 4.00 μM MDZ): 12.2 | 1'-OH-MDZ/4-OH-MDZ ratio ([4]; HI-30 (CYP3A4 & 3A5), 8.00 μM MDZ): 9.7 | 1'-OH-MDZ/4-OH-MDZ ratio ([4]; HI-31 (CYP3A4 & 3A5), 0.25 μM MDZ): 11.2 | 1'-OH-MDZ/4-OH-MDZ ratio ([4]; HI-31 (CYP3A4 & 3A5), 1.00 μM MDZ): 10.6 | 1'-OH-MDZ/4-OH-MDZ ratio ([4]; HI-31 (CYP3A4 & 3A5), 4.00 μM MDZ): 8.7 | 1'-OH-MDZ/4-OH-MDZ ratio ([4]; HI-31 (CYP3A4 & 3A5), 8.00 μM MDZ): 7.0 | 1'-OH-MDZ/4-OH-MDZ ratio ([4]; HI-35 (CYP3A4 & 3A5), 0.25 μM MDZ): 11.1 | 1'-OH-MDZ/4-OH-MDZ ratio ([4]; HI-35 (CYP3A4 & 3A5), 1.00 μM MDZ): 10.3 | 1'-OH-MDZ/4-OH-MDZ ratio ([4]; HI-35 (CYP3A4 & 3A5), 4.00 μM MDZ): 8.3 | 1'-OH-MDZ/4-OH-MDZ ratio ([4]; HI-35 (CYP3A4 & 3A5), 8.00 μM MDZ): 6.7 | interindividual variation of intrinsic clearance, duodenum [5]: 15 fold

Like-named read-outs stand apart in the source and are kept apart here.
